According to patent US20210386367A1, “DEVICES AND SYSTEMS FOR GASTROINTESTINAL MICROBIOME DETECTION AND MANIPULATION” (Progenity, Inc., priority 2018, published 2021):
Entries after “also recorded” stand apart in the source; their conditions may differ.

Tested on: Proteus mirabilis
Test: Broth microdilution MIC, 50 clinical isolates
Assay type: cell-based

SMILES: CO/N=C(\C(=O)N[C@@H]1C(=O)N2C(C(=O)O)=C(CSc3nc(=O)c(=O)[nH]n3C)CS[C@H]12)c1csc(N)n1 [ceftriaxone]
- relative activity among drugs tested: most active drug tested; also recorded: most active agent tested
